Results as given in ChEMBL document CHEMBL4043239, “Discovery and optimization of oxadiazole-based FLAP inhibitors” (Bioorg Med Chem Lett, 2017).

The chains behind the UniProt entries cited, without tags or fusion partners. Where a name states a change or a piece, a line headed by the entry shows the natural chain unless it says otherwise.
UniProt P20292: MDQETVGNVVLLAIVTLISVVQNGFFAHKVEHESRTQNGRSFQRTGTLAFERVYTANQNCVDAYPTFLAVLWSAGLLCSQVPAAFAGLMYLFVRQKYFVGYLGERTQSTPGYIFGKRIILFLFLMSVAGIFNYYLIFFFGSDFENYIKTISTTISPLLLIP

Molecular target: Arachidonate 5-lipoxygenase-activating protein (Homo sapiens, UniProt P20292)
Assay: Displacement of [125I]-L-691831 from human FLAP expressed in Sf9 cell membranes after 2 hrs by Topcount method

Question: How did the IC50 turn out when `CC(C)(C)NC(=O)Cn1cc(-c2nc(C3(c4ccc(-c5cnc(N)nc5)cc4)CCC3)no2)cn1` was run?
Answer: 3.7 nM
